Measurements: ChEMBL document CHEMBL3352119, “SAR studies of differently functionalized chalcones based hydrazones and their cyclized derivatives as inhibitors of mammalian cathepsin B and cathepsin H” (Bioorg Med Chem, 2014)

Target: Cathepsin B (Capra hircus) (UniProt H9B8T9)
Assay: Inhibition of goat liver cathepsin B assessed as enzyme activity at 10 uM using BANA substrate pre-incubated 30 mins before substrate addition by colorimetry

Activity: 4.29 nmol/min/mL
Compound: Brc1ccc(C2CC(c3ccccc3)=NN2c2ccccc2)cc1 (stereo unspecified)
